Values quoted from earlier work as cited in US8168800B2, “Aβ-binding small molecules” (The Regents of the University of California, priority 2007, dated 2012).
pKd: −log10 of the molar value.

The chains behind the UniProt entries cited, without tags or fusion partners. Residues count along the entry.
UniProt P05067, 672-713 limits assumed: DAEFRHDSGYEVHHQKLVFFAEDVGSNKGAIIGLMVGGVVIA

Biological target: T1, Aβ oligomers (biotinylated AβO from Aβ1-42 peptide) (Homo sapiens, UniProt P05067)
T1 construct: prepared by mixing a 1:10 ratio of biotinylated and unbiotinylated Aβ1-42 peptide
Details: from Maezawa et al. J. Neurochem. 2007; read-out: calculated binding affinity (KD); cited from earlier work

Cc1ccc2c(c1)sc(-c1ccc(N(C)C)cc1)[n+]2C [Thioflavin T]
pKd: 6.30
